Data reported in patent US9145426B2, “Pyrrolidine-fused thiadiazine dioxide compounds as BACE inhibitors, compositions, and their use” (Merck Sharp & Dohme Corp., priority 2011, dated 2015).

Protein sequences, listed by entry. Tags and fused reporters are not part of them. Residues count along the entry.
UniProt P56817, 75-416: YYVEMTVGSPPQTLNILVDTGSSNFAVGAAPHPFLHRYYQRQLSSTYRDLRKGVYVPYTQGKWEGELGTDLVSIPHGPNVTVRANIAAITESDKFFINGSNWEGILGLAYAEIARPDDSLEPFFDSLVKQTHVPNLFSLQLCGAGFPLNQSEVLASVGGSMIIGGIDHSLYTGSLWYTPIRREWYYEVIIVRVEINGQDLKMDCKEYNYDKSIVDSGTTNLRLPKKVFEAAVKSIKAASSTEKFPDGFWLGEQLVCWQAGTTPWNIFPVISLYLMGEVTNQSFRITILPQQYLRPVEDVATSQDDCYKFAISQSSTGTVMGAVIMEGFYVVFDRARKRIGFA

Biological target: soluble human BACE1 catalytic domain (Homo sapiens (Human), UniProt P56817)
Experiment: BACE1 HTRF FRET Assay
Assay type: biochemical
Details: calculated from IC50 using the Cheng-Prusoff equation; read-out: BACE-1 Ki
Text: Na^+-Acetate pH 5.0; 1% Brij-35; Glycerol; Dimethyl Sulfoxide (DMSO); Recombinant human soluble BACE1 catalytic domain (>95% pure); APP Swedish mutant peptide substrate (QSY7-APP^swe-Eu): QSY7-[…]-Europium-amide.
A homogeneous time-resolved FRET assay was used to determine IC50 values for inhibitors of the soluble human BACE1 catalytic domain. This assay monitored the increase of 620 nm fluorescence that resulted from BACE1 cleavage of an APPswedish APP^swe mutant peptide FRET substrate (QSY7-[…]-Europium-amide). This substrate contained an N-terminal QSY7 moiety that served as a quencher of the C-terminal Europium fluorophore (620 nm Em). In the absence of enzyme activity, 620 nm fluorescence was low in the assay and increased linearly over 3 hours in the presence of uninhibited BACE1 enzyme. Inhibition of BACE1 cleavage of the QSY7-APP^swe-Eu substrate by inhibitors was manifested as a suppression of 620 nm fluorescence.
Reactions were initiated by addition of 10 μl of 600 nM QSY7-APP^swe-Eu substrate (200 nM final) to give a final reaction volume of 30 μl in a 384 well Nunc HTRF plate. The reactions were incubated at 30° C. for 1.5 hours. The 620 nm fluorescence was then read on a Rubystar HTRF plate reader (BMG Labtechnologies) using a 50 […]s delay followed by a 400 millisecond acquisition time window. […]

| Ki | Structure (SMILES) |
| --- | --- |
| 86 nM | COc1cccc(N2CC3C(c4ccccc4)(C2)NC(=N)N(C)S3(=O)=O)n1 (racemic) [Ex. 14] |
| 42 nM | COc1nc(N2CC3C(c4ccccc4)(C2)NC(=N)N(C)S3(=O)=O)nc(C2CC2)c1F (racemic) [Ex. 16] |
